{"source": "patent US5762960A", "about": "(Trustees of Tufts College, priority 1996, dated 1998)", "origin": "cited, not measured here", "key": {"norepinephrine uptake": {"tested_on": "norepinephrine uptake", "parameters": "Amine Uptakes Blocking Activity Norepinephrine: key to the marks not given beside the values", "settings": "cited from earlier work"}, "serotonin uptake": {"tested_on": "serotonin uptake", "parameters": "Amine Uptakes Blocking Activity Serotonin: key to the marks not given beside the values", "settings": "cited from earlier work"}, "[1]": {"settings": "cited from earlier work"}, "[2]": {"settings": "in words, text commenting on Table 6"}}, "note": "Where two headings read alike, the source gives them in different places."}
{"molecule": "CNCCC=C1c2ccccc2CCc2ccccc21", "note": "[Nortriptyline, 3-(10,11-Dihydro-5H-dibenzo[a,d]cyclohepten-5-ylidene)-N-methyl-1-propamine]", "values": [{"measurement": "Amine Uptakes Blocking Activity Norepinephrine", "setting": "norepinephrine uptake; Table 3", "result": "++"}, {"measurement": "Interaction and blocking activity at the norepinephrine receptor site", "setting": "norepinephrine uptake; [2]", "result": "modest or slight"}, {"measurement": "Amine Uptakes Blocking Activity Serotonin", "setting": "serotonin uptake; Table 3", "result": "+++"}, {"measurement": "Activity at the serotonin receptor site in-vivo", "setting": "serotonin uptake; [2]", "result": "highest or very highest"}, {"measurement": "Therapeutic plasma level", "setting": "[1]; Table 3", "result": "50 to 150", "unit": "ng/mL"}, {"measurement": "Therapeutic plasma level", "setting": "[1]; Table 6", "result": "50 to 150", "unit": "ng/mL"}]}
